For the experiment, the target named is human A2A adenosine receptors (Homo sapiens, UniProt P29274). Nature of the experiment: Displacement of [^3H]CGS21680 binding, human A2A adenosine receptors in CHO cells (agonist radioligand).

The text below walks through data of US7511133B2 (dated 2009).

SMILES strings stand for the structures. pKi: −log10 of the molar value.

As to `CCNC(=O)[C@H]1O[C@@H](n2cnc3c(NC(=O)Nc4ccc(S(=O)(=O)N(C)C(C)C)cc4)ncnc32)C(O)C1O` (stereo partly drawn) [Compound 97, 1-Deoxy-1-[6-[[[[4-[N-(1-methylethyl)-N-(methyl)-aminosulfonyl]phenyl]amino]carbo-nyl]amino]-9H-purin-9-yl]-N-ethyl-β-D-ribofuranuronamide], the pKi is less than 6.00.
